{"source": "patent US20250000818A1", "about": "“NEW SYNERGISTIC COMBINATIONS BASED ON FENM AND AN ACETYLCHOLINESTERASE INHIBITOR” (REST Therapeutics, priority 2021, published 2025)", "origin": "cited, not measured here", "conditions": "source France Alzheimer; cited from earlier work"}
{"substance": "Aducanumab", "values": [{"measurement": "treated patients presenting cerebral microhemorrhages and cerebral edema", "result": "Approximately 35%"}]}
